Patent publication US9414598B2, “Protecting wood with stabilized boron complexes” (priority 2006, dated 2016)

Test system: Coptotermes formosanus
Settings: in vivo

## OB(O)O [Boric acid only, Boric acid]
  Termite mortality (%): 95.2%
